Bioassay records deposited in PubChem BioAssay by ICCB-Longwood Screening Facility, Harvard Medical School.
A selection: hits, their analogues and other compounds. The true share with any hit is near 0.46%.
HCMV UL50-53 inh – cytomegalovirus nuclear egress complex inhibition. HTRF UL50-UL53 interaction, normalized percent inhibition. inhibition, % (concentration not given with the values). 190,000 tested, 0.15% active; in the data active = inhibition above about 27%, passing the limit was not always enough
GIV-Gai inh – inhibitors of GIV GBA-motif binding to rat Galpha-i3; P08753; Galpha-i3/FITC-GIV peptide fluorescence polarization, 90 min; hits give low values; scaled: aluminum fluoride 0%, vehicle 100%; percent of control (FP), % (test concentration not listed); AID 1224905; hit rate 0.42% among 210,000;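 active = replicate mean at 85% of control or lower, very high polarization wells dropped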;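 note: wells of about 15 µL received 100 nL stock; the first replicate is given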
GIV Gai FP conf – confirmation of inhibitors of GIV binding to rat Galpha-i3; shares compounds with GIV-Gai inh; FITC-GIV peptide binding to Galphai3, fluorescence polarization; active compounds read low; fluorescence polarization, mP at 100 µM; 580 tested, 38% active; AID 1259350;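 active = inhibition score of 15 or more, meaning 100 minus mean polarization as percent of control over three replicates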;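 note: lower mP means peptide displaced from Galphai3 so more inhibition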
GIV-Gai AS conf – confirmation of inhibitors of GIV binding to human Galpha-i3; shares compounds with GIV-Gai inh; AlphaScreen Galphai3-GIV binding, purified proteins, 90 min; active compounds read low; AlphaScreen counts at 100 µM; 580 tested, 39% active; AID 1259351;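 active = inhibition score at or above a set limit, where the score is 100 minus the three-replicate mean percent of control signal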
Numbers without * were called inactive; · = no result.

#1 Cc1ccc(/C=C2/SC(=S)N(c3ccc(S(N)(=O)=O)cc3)C2=O)o1
#2 Cc1ccc(/C=C2\SC(=O)NC2=S)o1
#3 CCOc1cc(C=C2C(=O)N(C)C(=O)N(C)C2=O)ccc1OCCOc1ccc(C)cc1
#4 CCOc1cc(C=C2C(=O)N(C)C(=O)N(C)C2=O)ccc1OCCOc1ccccc1
#5 Cc1nn(-c2ccc(Cl)cc2)c2sc(C(=O)NC3CCCc4ccccc43)cc12 (stereo unspecified)
#6 Cc1nn(-c2ccccc2)c2sc(C(=O)NC(=S)NC3CCSC3=O)cc12 (stereo unspecified)
entry no.	1	2	3	4	5	6
HCMV UL50-53 inh	-14	-55	61*	17	·	·
GIV-Gai inh	·	46*	106	108	102	85*
GIV Gai FP conf	·	·	·	·	·	64
GIV-Gai AS conf	·	·	·	·	·	15795*

Reprinted from the part before: 4 compounds; new compounds follow.
#3 CCOc1cc(C=C2C(=O)N(C)C(=O)N(C)C2=O)ccc1OCCOc1ccc(C)cc1
#4 CCOc1cc(C=C2C(=O)N(C)C(=O)N(C)C2=O)ccc1OCCOc1ccccc1
#5 Cc1nn(-c2ccc(Cl)cc2)c2sc(C(=O)NC3CCCc4ccccc43)cc12 (stereo unspecified)
#6 Cc1nn(-c2ccccc2)c2sc(C(=O)NC(=S)NC3CCSC3=O)cc12 (stereo unspecified)
#7 Cc1sc2nc(/C=C/c3ccco3)oc(=O)c2c1C
#8 Cc1sc2nc(-c3cccs3)oc(=O)c2c1C
#9 Cc1ccc(-c2c(NCCC3=CCCCC3)c(=O)c2=O)cc1
#10 CC(C)=NNC(=O)Cc1c[nH]c2cccc(OCC(O)CNC(C)(C)C)c12 (stereo unspecified)
#11 CC(C)OC(=O)c1cc2c(OCC(O)CNC(C)(C)C)cccc2[nH]1 (stereo unspecified)
#12 Cn1c(C(=O)NCc2ccccc2F)cc2cc(S(=O)(=O)N3CCCCC3)ccc21
entry no.	3	4	5	6	7	8	9	10	11	12
HCMV UL50-53 inh	61*	17	·	·	-9	0	-6	-26	-14	·
GIV-Gai inh	106	108	102	85*	79*	·	116	90	·	89
GIV Gai FP conf	·	·	·	64	60	·	·	76	·	79
GIV-Gai AS conf	·	·	·	15795*	46890	·	·	32755	·	33586

#13 CCOc1ccccc1CNC(=O)c1cc2cc(S(=O)(=O)N3CCCCC3)ccc2n1C
#14 O=S(=O)(Nc1cc(Sc2ncn[nH]2)c(O)c2ccccc12)c1cccs1
#15 O=C1C(Sc2ncn[nH]2)=C/C(=N/S(=O)(=O)c2ccc(F)cc2)c2ccccc21
#16 O=C(O)C(Sc1ncn[nH]1)c1ccccc1 (stereo unspecified)
#17 CCOc1ccc(S(=O)(=O)/N=C2/C=C(Sc3ncn[nH]3)C(=O)c3ccccc32)cc1
#18 CCOc1ccc(CSc2ncn[nH]2)cc1
entry no.	13	14	15	16	17	18
HCMV UL50-53 inh	·	-1	2	-18	21	-4
GIV-Gai inh	98	105	3.7*	·	11*	99
GIV Gai FP conf	·	·	36*	·	32*	·
GIV-Gai AS conf	·	·	5053*	·	6312*	·

#19 O=C1C(Sc2ncn[nH]2)=C/C(=N/S(=O)(=O)c2cccs2)c2ccccc21
#20 CCC(C(=O)Nc1cccc2nsnc12)N1C(=O)COc2ccccc21 (stereo unspecified)
#21 CC1(C)CC(=O)C2=C(C1)OC1=C(C(=O)CC(C)(C)C1)C2c1cc(Cl)ccc1O
#22 CCN(C(=O)CSc1nc(C)cc(C)c1C(N)=O)C1CCS(=O)(=O)C1 (stereo unspecified)
#23 CS(=O)(=O)N(CC(=O)N1CCc2ccccc2C1)c1ccccc1
#24 CC(=O)C1=NN(c2ccc(Cl)cc2)C2(S1)SC(c1ccccc1)(c1ccccc1)c1ccccc12 (stereo unspecified)
entry no.	19	20	21	22	23	24
HCMV UL50-53 inh	51*	-47	-8	11	·	·
GIV-Gai inh	18*	105	113	·	102	100
GIV Gai FP conf	40*	·	·	·	·	·
GIV-Gai AS conf	4995*	·	·	·	·	·

#25 O=C(NC1(O)C(=O)c2ccccc2C1=O)c1ccccn1
#26 O=C(O)CNC(=O)Cc1ccccc1
#27 Cc1ccc(C(=O)O)cc1NC1(c2ccccc2)C(=O)c2ccccc2C1=O
#28 Cc1ccc(C(=O)NC2(O)C(=O)c3ccccc3C2=O)cc1C
#29 O=C(NO)c1ccc(C(F)(F)F)cc1
#30 O=C(NCCc1ccccc1)c1ccccn1
entry no.	25	26	27	28	29	30
HCMV UL50-53 inh	36	-15	·	59*	-10	-34
GIV-Gai inh	74*	104	98	57*	·	·
GIV Gai FP conf	68	·	·	45*	·	·
GIV-Gai AS conf	36588	·	·	46487	·	·

#31 O=C(NC1(O)C(=O)c2ccccc2C1=O)c1ccc(C(F)(F)F)cc1
#32 O=C(Cc1ccccc1)NC1(O)C(=O)c2ccccc2C1=O
#33 Cc1nc(N2CCN(c3ccccn3)CC2)c2c(C)c(C(=O)N(C)Cc3ccccc3)sc2n1
#34 O=C(OCC(=O)N1CCCCCC1)c1c(Cl)cccc1Cl
#35 CCOc1ccccc1NC(=O)c1cc(S(=O)(=O)N2CCN(c3cccc(Cl)c3)CC2)ccc1F
#36 CCOC(=O)c1ccc(NC(=O)CON=c2c(C)nc3ccccc3nc2C)cc1
entry no.	31	32	33	34	35	36
HCMV UL50-53 inh	58*	50*	-21	-8	·	-18
GIV-Gai inh	56*	61*	103	·	106	·
GIV Gai FP conf	61	52*	·	·	·	·
GIV-Gai AS conf	32539	45267	·	·	·	·

#37 Cc1ccn2c(=O)cc(COc3cccc(NC(=O)Nc4cccc(Cl)c4C)c3)nc2c1
#38 Cc1ccn2c(=O)cc(COc3ccc(NC(=O)Nc4cccc(Cl)c4)cc3)nc2c1
#39 Cc1ccn2c(=O)cc(COc3ccc(NC(=O)Nc4ccc(Cl)cc4)cc3)nc2c1
#40 Cc1c(Cl)cccc1NC(=O)Nc1cccc(OCc2cc(=O)n3ccccc3n2)c1
#41 CCCN(CCC)C(=O)CC(c1ccccc1)c1ccccc1O (stereo unspecified)
#42 Cc1ccc(Nc2c(C(=O)NCc3ccc4c(c3)OCO4)cnc3c2c(C)nn3C)cc1
entry no.	37	38	39	40	41	42
HCMV UL50-53 inh	·	·	·	·	0	·
GIV-Gai inh	88	108	82*	99	99	99
GIV Gai FP conf	75	·	76	·	·	·
GIV-Gai AS conf	35234	·	24165	·	·	·

#43 O=C(NN1C(=O)/C(=C2/C(=O)N(Cc3ccccc3Cl)c3ccccc32)SC1=S)c1ccncc1
#44 Cc1cc(C=Nc2ccc(O)c(C(=O)O)c2)c(C)n1-c1ccc(N(C)C)cc1
#45 Cc1[nH][nH]c(=O)c1C=Nc1ccc(O)c(C(=O)O)c1
#46 O=C1CCCc2cc(S(=O)(=O)NCC3CCN(CCc4cccs4)CC3)ccc2N1
#47 CN(Cc1ccccc1)C(=O)c1cc2c(=O)[nH]c3ccccc3c2s1
#48 CCN(Cc1ccccc1)C(=O)c1cc2c(=O)[nH]c3ccc(C)cc3c2s1
entry no.	43	44	45	46	47	48
HCMV UL50-53 inh	-11	-12	4	-38	0	-13
GIV-Gai inh	103	·	88	107	87	103
GIV Gai FP conf	·	·	63	·	68	·
GIV-Gai AS conf	·	·	6341*	·	48153	·

#49 CNC(=O)CC1SC(N)=NC1=O (stereo unspecified)
#50 COC(=O)c1cc(-c2cocc2C=C(C#N)C#N)ccc1Cl
#51 COC(=O)c1cnn(-c2c(Cl)cccc2Cl)c1C=C(C#N)C#N
#52 CCOc1ccc(N2CC(O)(c3ccc(OC)cc3)[N+]3=C2CCCC3)cc1 (stereo unspecified)
#53 O=C(CC1SC(=O)NC1=O)Nc1ccc(O)cc1 (stereo unspecified)
#54 O=C(CC1SC(=O)NC1=O)Nc1cccc(NC(=O)CC2SC(=O)NC2=O)c1 (stereo unspecified)
entry no.	49	50	51	52	53	54
HCMV UL50-53 inh	-3	-9	4	·	-14	-31
GIV-Gai inh	102	52*	97	109	103	76*
GIV Gai FP conf	·	75	·	·	·	62*
GIV-Gai AS conf	·	27781	·	·	·	9767*

#55 COc1ccc(CCn2c(SCC(N)=O)nc3c(sc4ccccc43)c2=O)cc1OC
#56 Cc1ccc(S(=O)(=O)c2nc3ccccc3nc2NCCc2ccccc2)cc1
#57 COc1ccccc1CNc1nc2ccccc2nc1S(=O)(=O)c1ccc(C)cc1
#58 CCN(CC)c1ncc(C(=O)O)cc1NS(=O)(=O)c1cc(C)cc(C)c1
#59 CCN(Cc1ccccc1)c1ncc(C(=O)O)cc1NS(=O)(=O)c1cc(C)cc(C)c1
#60 CCCCN(CC)c1ncc(C(=O)O)cc1NS(=O)(=O)c1cc(C)c(C)cc1C
#61 Cc1ccc(C)c(S(=O)(=O)Nc2cc(C(=O)O)cnc2N(C)C)c1
#62 CCOC(=O)N1CCN(C(=O)C(C)Oc2ccc(Br)cc2)CC1 (stereo unspecified)
entry no.	55	56	57	58	59	60	61	62
HCMV UL50-53 inh	3	-24	-22	-32	-29	-15	-35	-16
GIV-Gai inh	107	78*	114	80*	138	101	86	103
GIV Gai FP conf	·	65	·	53	·	·	60	·
GIV-Gai AS conf	·	42344	·	26287*	·	·	26202*	·
